The values below come from ChEMBL document CHEMBL6074689 (Eur J Med Chem, 2025).

The chains behind the UniProt entries cited, without tags or fusion partners.
UniProt P06276, whole entry: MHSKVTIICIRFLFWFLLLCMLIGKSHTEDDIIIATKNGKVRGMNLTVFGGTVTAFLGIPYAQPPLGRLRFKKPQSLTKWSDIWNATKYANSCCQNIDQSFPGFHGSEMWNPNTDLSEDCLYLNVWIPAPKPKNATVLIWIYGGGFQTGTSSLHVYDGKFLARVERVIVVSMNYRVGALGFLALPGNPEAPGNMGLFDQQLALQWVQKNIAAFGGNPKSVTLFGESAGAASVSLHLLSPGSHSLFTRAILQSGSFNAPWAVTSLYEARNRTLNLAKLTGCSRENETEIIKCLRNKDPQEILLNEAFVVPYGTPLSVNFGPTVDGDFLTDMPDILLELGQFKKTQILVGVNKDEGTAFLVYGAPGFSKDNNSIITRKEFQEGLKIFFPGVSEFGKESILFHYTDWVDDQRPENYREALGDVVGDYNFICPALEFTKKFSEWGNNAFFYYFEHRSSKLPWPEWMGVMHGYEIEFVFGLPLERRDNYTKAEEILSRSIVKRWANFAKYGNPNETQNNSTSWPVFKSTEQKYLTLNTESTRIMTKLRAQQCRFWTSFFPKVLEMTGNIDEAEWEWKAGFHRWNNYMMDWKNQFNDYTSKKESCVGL

This assay has as its target Cholinesterase (Homo sapiens, UniProt P06276).

One may read the IC50 as the point on the concentration scale where inhibition reaches its midpoint. High values mean a need for much substance, low ones inhibition by little substance.

As to `CCN(C)C(=O)Oc1cccc([C@H](C)N(C)C)c1` [RIVASTIGMINE], half-maximal inhibition (IC50) required 0.091 µM.
